Laboratory results: patent US20240409944A1, “COMPOSITIONS AND METHODS FOR THE INHIBITION OF TUMOR METASTASIS AND HORIZONTAL GENE TRANSFER” (The Regents of the University of Colorado, a body corporate, priority 2021, published 2024)

System: MDA-MB-231-H2B-mCherry and RPE1-VEP co-culture
[1] = 10 μM Doxorubicin, 20 μM Actinomycin D, 100 μM Hygromycin B

Compound	CIC entry/exit time (time occurrence) compared to DMSO	CIC structure duration compared to DMSO	average duration of CIC structures [h]	concentration that produced the highest frequency of CIC structures [µM]	time at which CIC structures were concentrated (entry-exit) [h]	CIC entry/exit time (time occurrence) compared to DMSO [1]	CIC structure duration compared to DMSO [1]	average duration of CIC structures (10 μM Doxorubicin, 20 μM Actinomycin D, 100 μM Hygromycin B, alone or combined, 48-hour imaging) [h]	time at which CIC structures were concentrated (entry-exit) (10 μM Doxorubicin, 20 μM Actinomycin D, 100 μM Hygromycin B, alone or combined, 48-hour imaging period) [h]	concentration that produced the highest frequency of CIC structures (10 μM, 20 μM and 40 μM tested, 48 hours live cell imaging) [µM]
Cc1c2oc3c(C)ccc(C(=O)N[C@@H]4C(=O)N[C@H](C(C)C)C(=O)N5CCC[C@H]5C(=O)N(C)CC(=O)N(C)[C@@H](C(C)C)C(=O)O[C@@H]4C)c3nc-2c(C(=O)N[C@@H]2C(=O)N[C@H](C(C)C)C(=O)N3CCC[C@H]3C(=O)N(C)CC(=O)N(C)[C@@H](C(C)C)C(=O)O[C@@H]2C)c(N)c1=O [Actinomycin D] (I: T[dV]P[Sar][NMeV] / II: T[dV]P[Sar][NMeV]; ester I:1-I:C, II:1-II:C; linker I:N-II:N via Actinocin(9to1))	no significance	no significance	8.9	20	7.8 to 16.9					
COc1cccc2c1C(=O)c1c(O)c3c(c(O)c1C2=O)C[C@@](O)(C(=O)CO)C[C@@H]3O[C@H]1C[C@H](N)[C@H](O)[C@H](C)O1 [Doxorubicin]						significantly increased	significantly increased	14.24	14 to 27.7	10

Like-named read-outs stand apart in the source and are kept apart here. *1 amine or outer side, *2 acyl side, *3 side chain or, on linkers, in order; H or OH if unused. Where a SMILES comes first, the peptide text is derived from it. Bridges are numbered along the chain shown (N, C = ends). Roman numbers before positions name the chains, in order. [ ]: non-standard residue; d: D form. Actinocin(9to1) = Cc1c2oc3c(C)ccc(C(=O)[*:1])c3nc-2c(C(=O)[*:2])c(N)c1=O; NMeV = CN[C@H](C(=O)O)C(C)C; Sar = CNCC(=O)O
